Biological target: Transporter (Rattus norvegicus, UniProt Q63380)
Assay: Displacement of [3H]nisoxetine from NET in rat brain
Assay type: tissue-based
Procedure, shortened: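 Radioligand displacement from monoamine transporters in rat brain tissue: [3H]WIN 35,428 for DAT, [3H]citalopram for SERT, [3H]nisoxetine for NET. Test agents were used as oxalate salts, and Ki was derived from displacement. Values are mean ± SEM of three experiments, each run in triplicate.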

By UniProt entry, the sequences of proteins in these tests, tags left out.
UniProt Q63380, whole entry: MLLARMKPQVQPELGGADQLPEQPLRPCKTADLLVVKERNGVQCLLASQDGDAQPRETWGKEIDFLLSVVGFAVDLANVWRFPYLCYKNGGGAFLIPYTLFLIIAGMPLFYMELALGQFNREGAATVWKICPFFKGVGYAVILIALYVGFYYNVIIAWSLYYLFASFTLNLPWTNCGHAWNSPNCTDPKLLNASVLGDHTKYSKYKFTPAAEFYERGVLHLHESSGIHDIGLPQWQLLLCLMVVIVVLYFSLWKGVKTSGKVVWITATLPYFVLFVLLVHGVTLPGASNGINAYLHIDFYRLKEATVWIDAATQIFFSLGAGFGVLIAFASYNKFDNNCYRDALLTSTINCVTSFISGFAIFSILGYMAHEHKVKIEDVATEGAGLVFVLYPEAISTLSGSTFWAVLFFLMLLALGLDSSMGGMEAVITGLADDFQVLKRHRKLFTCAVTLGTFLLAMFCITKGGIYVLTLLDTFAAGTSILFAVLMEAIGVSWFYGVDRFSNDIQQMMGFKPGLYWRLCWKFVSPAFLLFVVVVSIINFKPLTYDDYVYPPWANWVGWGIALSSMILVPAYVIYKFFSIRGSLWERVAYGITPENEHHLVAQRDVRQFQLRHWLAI

`COC(=O)[C@H]1[C@@H](OC(=O)c2ccccc2)C[C@@H]2CC[C@H]1N2C` [COCAINE] showed a Ki of 3.19 µM.
